Assay results as given in patent US20240360179A1, “STAPLED PEPTIDES AND METHODS THEREOF” (FOG PHARMACEUTICALS, INC., priority 2021, published 2024).

Amino acid sequences for entries named in this document (tags omitted).
UniProt P35222, whole entry: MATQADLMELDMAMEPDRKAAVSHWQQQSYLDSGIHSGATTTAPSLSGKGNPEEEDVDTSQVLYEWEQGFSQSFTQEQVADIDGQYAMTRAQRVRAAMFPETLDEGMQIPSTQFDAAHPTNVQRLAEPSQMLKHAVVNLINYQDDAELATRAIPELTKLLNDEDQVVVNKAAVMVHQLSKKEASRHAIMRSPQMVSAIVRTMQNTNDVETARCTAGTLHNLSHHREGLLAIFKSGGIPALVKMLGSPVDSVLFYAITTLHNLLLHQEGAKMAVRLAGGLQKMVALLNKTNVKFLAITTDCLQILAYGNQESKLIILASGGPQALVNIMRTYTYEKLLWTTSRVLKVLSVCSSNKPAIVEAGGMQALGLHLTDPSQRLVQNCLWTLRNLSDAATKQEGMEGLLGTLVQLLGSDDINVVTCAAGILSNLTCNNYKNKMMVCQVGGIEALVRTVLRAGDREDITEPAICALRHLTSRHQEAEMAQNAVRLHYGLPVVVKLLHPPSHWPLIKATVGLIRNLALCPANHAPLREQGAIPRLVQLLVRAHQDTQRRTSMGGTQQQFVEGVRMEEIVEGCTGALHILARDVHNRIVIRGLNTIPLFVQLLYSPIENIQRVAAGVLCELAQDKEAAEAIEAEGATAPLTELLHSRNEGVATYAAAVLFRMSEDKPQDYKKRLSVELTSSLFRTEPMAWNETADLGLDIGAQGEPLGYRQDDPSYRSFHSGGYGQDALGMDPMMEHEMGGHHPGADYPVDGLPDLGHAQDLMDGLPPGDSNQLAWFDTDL

molecular target: T1, full-length B-Catenin (Uniprot ID P35222) (Homo sapiens, UniProt P35222); experiment: biochemical; assay type: binding; settings: beta-Catenin FP IC50 (nM), competition fluorescence polarization
T1 construct: 10 nM full-length B-Catenin (Uniprot ID P35222)

`CC(=O)N1CCC[C@]12CC=CCCCC1(CCCC=CCCCOC(=O)N3CC[C@@]4(C3)NC(=O)[C@H](CCCCNC(=O)CC[C@@H](C(=O)N[C@@H](C)C(N)=O)NC(=O)[C@H](Cc3csc5ccccc35)NC(=O)[C@H](Cc3ccccc3C(F)(F)F)NC4=O)NC(=O)[C@H](Cc3ccccc3)NC(=O)[C@H](C)NC(=O)[C@H](C)NC(=O)[C@H](CN(CC(=O)O)CC(F)(F)F)NC(=O)[C@H](CC(=O)O)NC1=O)NC(=O)[C@H](CC(C)(C)C)NC(=O)[C@H](CCO)NC2=O` (single isomer, unassigned) [I-115, Ac-PL3-Hse-Npg-B5-Asp-TfeGA-Ala-Ala-Phe-Lys*3-PyrS2-2F3MeF-BztA-GlnR*3-Ala-NH2] and `CC(=O)N1CCC[C@]12CC=CCCCC1(CCCC=CCCCOC(=O)N3CC[C@@]4(C3)NC(=O)[C@H](CCCCNC(=O)CC[C@@H](C(=O)N[C@@H](C)C(N)=O)NC(=O)[C@H](Cc3csc5ccccc35)NC(=O)[C@H](Cc3ccccc3C(F)(F)F)NC4=O)NC(=O)[C@H](Cc3ccccc3)NC(=O)[C@H](C)NC(=O)[C@H](C)NC(=O)[C@H](CN(CC(=O)O)CC(F)(F)F)NC(=O)[C@H](CCO)NC1=O)NC(=O)[C@H](CC(C)(C)C)NC(=O)[C@H](CC(=O)O)NC2=O` (single isomer, unassigned) [I-118, Ac-PL3-Asp-Npg-B5-Hse-TfeGA-Ala-Ala-Phe-Lys*3-PyrS2-2F3MeF-BztA-GlnR*3-Ala-NH2] cannot be ordered by IC50: > 1000 nM for the first, > 1000 nM for the second.

Compared with `CC(=O)N1CCC[C@]12CC=CCCCC1(CCCC=CCCCOC(=O)N3CC[C@@]4(C3)NC(=O)[C@H](CCCCNC(=O)CC[C@@H](C(=O)N[C@@H](C)C(N)=O)NC(=O)[C@H](Cc3csc5ccccc35)NC(=O)[C@H](Cc3ccsc3)NC4=O)NC(=O)[C@H](Cc3ccccc3)NC(=O)[C@H](C)NC(=O)C3(CCNCC3)NC(=O)[C@H](Cc3cccc(C(=O)O)c3)NC(=O)[C@H](CC(=O)O)NC1=O)NC(=O)[C@H](CC(C)(C)C)NC(=O)[C@H](CC(=O)O)NC2=O` (single isomer, unassigned) [I-384, Ac-PL3-Asp-Npg-B5-Asp-3COOHF-Acp-Ala-Phe-Lys*3-PyrS2-3Thi-BztA-GlnR*3-Ala-NH2], `CC(=O)N1CCC[C@]12CC=CCCCC1(CCCC=CCCCOC(=O)N3CC[C@@]4(C3)NC(=O)[C@H](CCCCNC(=O)CC[C@@H](C(=O)N[C@@H](C)C(N)=O)NC(=O)[C@H](Cc3csc5ccccc35)NC(=O)[C@H](Cc3ccsc3)NC4=O)NC(=O)[C@H](Cc3ccccc3)NC(=O)C(C)(C)NC(=O)[C@H](C)NC(=O)[C@H](Cc3cccc(C(=O)O)c3)NC(=O)[C@H](CC(=O)O)NC1=O)NC(=O)[C@H](CC(C)(C)C)NC(=O)[C@H](CC(=O)O)NC2=O` (single isomer, unassigned) [I-442, Ac-PL3-Asp-Npg-B5-Asp-3COOHF-Ala-Aib-Phe-Lys*3-PyrS2-3Thi-BztA-GlnR*3-Ala-NH2] is higher in IC50: < 50 nM for the first, 50 to 200 nM for the second. The first is the more potent here.

`CC(=O)N1CCC[C@]12CC=CCCCC1(CCCC=CCCCOC(=O)N3CC[C@@]4(C3)NC(=O)[C@H](CCCCn3cc(nn3)CC[C@@H](C(=O)N[C@@H](C)C(N)=O)NC(=O)[C@H](Cc3csc5ccccc35)NC(=O)[C@H](Cc3ccccc3)NC4=O)NC(=O)[C@H](Cc3ccccc3)NC(=O)[C@H](C)NC(=O)C(C)(C)NC(=O)[C@H](Cc3cccc(C(=O)O)c3)NC(=O)[C@H](CC(=O)O)NC1=O)NC(=O)[C@H](CC(C)(C)C)NC(=O)[C@H](CC(=O)O)NC2=O` (single isomer, unassigned) [I-419, Ac-PL3-Asp-Npg-B5-Asp-3COOHF-Aib-Ala-Phe-TriAzLys*3-PyrS2-Phe-BztA-sAbu*3-Ala-NH2] and `CC(=O)N1CCC[C@]12CC=CCCCC1(CCCC=CCCCOC(=O)N3CC[C@@]4(C3)NC(=O)[C@H](CCCCNC(=O)CC[C@@H](C(=O)N[C@H](C)C(=O)N[C@@H](CO)C(N)=O)NC(=O)[C@H](Cc3csc5ccccc35)NC(=O)[C@H](Cc3ccsc3)NC4=O)NC(=O)[C@H](Cc3ccccc3)NC(=O)[C@H](C)NC(=O)C(C)(C)NC(=O)[C@H](Cc3cccc(C(=O)O)c3)NC(=O)[C@H](CC(=O)O)NC1=O)NC(=O)[C@H](CC(C)(C)C)NC(=O)[C@H](CC(=O)O)NC2=O` (single isomer, unassigned) [I-460, Ac-PL3-Asp-Npg-B5-Asp-3COOHF-Aib-Ala-Phe-Lys*3-PyrS2-3Thi-BztA-GlnR*3-dAla-Ser-NH2] cannot be ordered by IC50: < 50 nM for the first, < 50 nM for the second.

`CC(=O)N1CCC[C@]12CC=CCCCC1(CCCC=CCCCOC(=O)N3CC[C@@]4(C3)NC(=O)[C@H](CCCCNC(=O)CC[C@@H](C(=O)N[C@@H](C)C(N)=O)NC(=O)[C@H](Cc3ccc(Cl)c(Cl)c3)NC(=O)[C@H](Cc3ccccc3)NC4=O)NC(=O)[C@H](Cc3ccc4ccccc4c3)NC(=O)[C@H](C)NC(=O)C(C)(C)NC(=O)[C@H](Cc3cccc(C(=O)O)c3)NC(=O)[C@H](CC(=O)O)NC1=O)NC(=O)[C@H](CC(C)(C)C)NC(=O)[C@H](CC(=O)O)NC2=O` (single isomer, unassigned) [I-481, Ac-PL3-Asp-Npg-B5-Asp-3COOHF-Aib-Ala-2NapA-Lys*3-PyrS2-Phe-34ClF-GlnR*3-Ala-NH2] and `CCCC[C@@H]1NC(=O)[C@]23CCN(C2)C(=O)OCCCC=CCCCC2(CCCC=CC[C@]4(CCCN4C(C)=O)C(=O)N[C@@H](CC(=O)O)C(=O)N[C@@H](CC(C)(C)C)C(=O)N2)C(=O)N[C@@H](CC(=O)O)C(=O)N[C@@H](Cc2cccc(C(=O)O)c2)C(=O)NC(C)(C)C(=O)N[C@@H](C)C(=O)N[C@@H](Cc2ccccc2)C(=O)N[C@@H](CCCCNC(=O)CC[C@@H](C(=O)N[C@@H](C)C(N)=O)NC(=O)[C@H](Cc2ccc4ccccc4c2)NC1=O)C(=O)N3` (single isomer, unassigned) [I-489, Ac-PL3-Asp-Npg-B5-Asp-3COOHF-Aib-Ala-Phe-Lys*3-PyrS2-nLeu-2NapA-GlnR*3-Ala-NH2] cannot be ordered by IC50: < 50 nM for the first, < 50 nM for the second.

`CCCC[C@@H]1NC(=O)[C@]23CCN(C2)C(=O)OCCCC=CCCCC2(CCCC=CC[C@]4(CCCN4C(C)=O)C(=O)N[C@@H](CC(=O)O)C(=O)N[C@@H](CC(C)(C)C)C(=O)N2)C(=O)N[C@@H](CC(=O)O)C(=O)N[C@@H](Cc2cccc(C(=O)O)c2)C(=O)NC(C)(C)C(=O)N[C@@H](C)C(=O)N[C@@H](Cc2ccccc2)C(=O)N[C@@H](CCCCNC(=O)CC[C@@H](C(=O)N[C@@H](C)C(N)=O)NC(=O)[C@H](Cc2ccc4ccccc4c2)NC1=O)C(=O)N3` (single isomer, unassigned) [I-490, Ac-PL3-Asp-Npg-B5-Asp-3COOHF-Aib-Ala-Phe-Lys*3-PyrS2-nLeu-2NapA-GlnR*3-Ala-NH2] and `CC(=O)N1CCC[C@]12CC=CCCCC1(CCCC=CCCCOC(=O)N3CC[C@@]4(C3)NC(=O)[C@H](CCCCNC(=O)CC[C@@H](C(=O)N[C@@H](C)C(N)=O)NC(=O)[C@H](Cc3ccc5ccccc5c3)NC(=O)[C@H](CC3CCCC3)NC4=O)NC(=O)[C@H](Cc3ccccc3)NC(=O)[C@H](C)NC(=O)C(C)(C)NC(=O)[C@H](Cc3cccc(C(=O)O)c3)NC(=O)[C@H](CC(=O)O)NC1=O)NC(=O)[C@H](CC(C)(C)C)NC(=O)[C@H](CC(=O)O)NC2=O` (single isomer, unassigned) [I-491, Ac-PL3-Asp-Npg-B5-Asp-3COOHF-Aib-Ala-Phe-Lys*3-PyrS2-CypA-2NapA-GlnR*3-Ala-NH2] fall in the same range of IC50: 50 to 200 nM for the first, 50 to 200 nM for the second.
